We go through two compounds from PubChem BioAssay AID493014 (National Center for Advancing Translational Sciences (NCATS), 2011).

The entries are a selection whose mix differs from that of the whole data set. Records with an inconclusive call do not appear. Calls of active or inactive are those of the source. Calls come from the whole dose curve; as a rule, active = well fitted inhibition curve with a large enough effect in the signal ratio, with a control signal flat (not every such curve was filed as active); inconclusive = small, poorly fitted or top-dose-only effect, or effect the other way, or a change in a side signal; inactive = flat fitted curve, though single readings scatter; the % refers to the signal ratio.

This test in a line: qHTS Assay to Find Inhibitors of Chronic Active B-Cell Receptor Signaling.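 Note: plate controls were basal doxycycline-induced cells for no effect and cells given 10 µM MG132 for full effect.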 The settings on record: ABC-DLBCL IkBa-CBG/CBR reporter, luminescence ratio (green luciferase fused to IkBa over red control in TMD8 lymphoma cells), 4 h; at 46.1 µM (top of the series). An excerpt:
NIH Molecular Libraries Probe Production Network [MLPCN] NIH Chemical Genomics Center [NCGC] MLPCN Grant: 1 R03 DA031086-01A1 PI Name: Dr. R. Eric Davis NCGC Assay Overview: Diffuse large B-cell lymphoma (DLBCL) is the most common category of non-Hodgkin lymphoma, with ~20,000 new cases per year in the United States. DLBCL should be regarded as a collection of different neoplasms. Microarray gene expression analysis has defined two principal types of DLBCL, named for their similarity to normal B cell stages or activation states: a germinal center B-cell (GCB) type, and an activated B-cell (ABC) type. […] Following the addition of doxycycline to induce expression of the luciferases, the green luminescence in control cultures rises only slowly because the CBG fusion partner IkappaBalpha is targeted by IKK activity for rapid degradation. In contrast, green luminescence rises rapidly in the presence of proteasome inhibitors or IKK inhibitors. The rise in red luminescence of CBR is not affected by proteasome or IKK inhibitors, and serves as normalization for cell number and nonspecific effects. […]
NCGC Assay Protocol Summary: Cells were seeded in 1536-well plates at 5000 cells/4uL in IMDM medium containing 0.5% FBS, w/o phenol red, 1% penicillin/streptomycin. […] The plates were measured on a ViewLux plate reader for green luminescence (540/20 nm filter) and red luminescence (618/8 nm filter). […]
In the case of `CCC(=O)N(c1ccccc1)C1(COC)CCN(CCc2cccs2)CC1`, the activity change, negative = inhibition was inactive: -1.96%. The same measure for `CCC(=O)N(c1ccccc1)C1(COC)CCN(CCn2nnn(CC)c2=O)CC1`: inactive: -0.74%.
